Experimental data reported in PubChem BioAssay AID454 (Sanford-Burnham Center for Chemical Genomics, 2006).
This is a selection; strong and weak results do not stand in their true shares. Active and inactive are the calls of the source.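 Rule for the calls: active = compound among top-ranked inhibitors of TNF-induced VCAM-1 adhesion protein staining, with the hit upheld by image or statistical review; inactive = the rest, including hits rejected on review.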

Test: suppression of endothelial VCAM-1 upregulation – cell-based, plate reader, pooled HUVEC, TNFa stimulus (AID 454)
Settings: HUVEC TNFa-induced VCAM-1 surface immunofluorescence

Row | Compound | outcome
1 | Fc1ccccc1NC1CCN(Cc2ccccc2)CC1 | inactive
